US8110193B2, “Methods for conditioning a subject for hematopoietic cell transplantation” (City of Hope, priority 2007, dated 2012)

Test system: anti-CD3-activated T cells
Test: T cell proliferation by anti-CD3-stimulation
Conditions: 1 μM SAHA

O=C(CCCCCCC(=O)Nc1ccccc1)NO [SAHA, suberoylanilide hydroxamic acid]
proliferation of anti-CD3-activated T cells: no proliferation at all
